Test results as given in ChEMBL document CHEMBL4020701, “A strategy for dual inhibition of the proteasome and fatty acid synthase with belactosin C-orlistat hybrids” (Bioorg Med Chem, 2017).

Protein sequences, listed by entry. Tags and fused reporters are not part of them. Lines headed by an entry give the natural chain unless they say otherwise; changes in a name come on top.
UniProt P28074: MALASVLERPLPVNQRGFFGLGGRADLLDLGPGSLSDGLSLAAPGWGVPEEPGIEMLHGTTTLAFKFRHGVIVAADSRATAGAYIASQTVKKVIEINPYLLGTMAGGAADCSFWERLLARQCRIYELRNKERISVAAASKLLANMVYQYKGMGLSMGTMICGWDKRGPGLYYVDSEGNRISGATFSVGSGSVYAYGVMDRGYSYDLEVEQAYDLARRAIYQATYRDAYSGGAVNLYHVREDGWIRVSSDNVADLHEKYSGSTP

Biological target: Proteasome Macropain subunit MB1 (Homo sapiens, UniProt P28074)
Assay: Inhibition of chymotrypsin-like activity of 20S proteasome in human red blood cells pretreated for 20 mins followed by Suc-Leu-Leu-Val-Tyr-AMC substrate addition by fluorescence assay
Format: cell-based
Procedure, shortened: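 20S proteasome (50 ng) from human erythrocytes, preincubated 20 min at 37 °C in 20 mM Tris pH 7.5 with inhibitor series. AMC substrate then added: 10 µM Suc-LLVY for chymotrypsin-like, 20 µM Boc-LRR for trypsin-like, 20 µM Z-LLE for caspase-like. Hydrolysis followed at 360/460 nm for 600 s; the linear rate was fitted to a four-parameter curve for IC50. Triplicate.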

SMILES	IC50 [nM]
CCCCCC[C@@H]1C(=O)O[C@H]1C(=O)NCCCC[C@H](NC(=O)[C@H](C)NC(=O)c1ccc(Br)cc1)C(=O)OCc1ccccc1	510
CCCCCC[C@@]1(C)C(=O)O[C@@H]1C(=O)NCCCC[C@H](NC(=O)[C@H](C)NC(=O)OCc1ccccc1)C(=O)OCc1ccccc1	2180
CCCCCC[C@]1(C)C(=O)O[C@H]1C(=O)NCCCC[C@H](NC(=O)[C@H](C)NC(=O)OCc1ccccc1)C(=O)OCc1ccccc1	2430
CCCCCC[C@@]1(C)C(=O)O[C@H]1C(=O)NCCCC[C@H](NC(=O)[C@H](C)NC(=O)OCc1ccccc1)C(=O)OCc1ccccc1	3390
